Measured values as given in patent US20190076507A1, “Artificial Red Blood Cell Having Ability to Inhibit Conversion of Hemoglobin into Methemoglobin” (Public University Corporation Nara Medical University, priority 2016, published 2019).

Chains of the proteins cited; added tags and fusions are not shown. Residues count along the entry.
UniProt P68871, 2-147 limits assumed: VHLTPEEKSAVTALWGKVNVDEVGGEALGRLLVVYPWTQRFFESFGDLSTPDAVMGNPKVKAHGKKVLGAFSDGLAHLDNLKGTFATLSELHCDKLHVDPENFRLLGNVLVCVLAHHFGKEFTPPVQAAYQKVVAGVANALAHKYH
UniProt P69905, 2-142 limits assumed: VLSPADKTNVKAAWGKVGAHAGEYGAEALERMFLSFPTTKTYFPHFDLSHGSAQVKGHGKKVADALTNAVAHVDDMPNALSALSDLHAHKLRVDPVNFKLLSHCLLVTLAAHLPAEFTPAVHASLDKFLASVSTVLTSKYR

Molecular target: T1, HbO2 (Homo sapiens, UniProt P68871+P69905)
T1 construct: The Hb released by hemolysis was filtered and collected, with the red blood cell membrane components (stroma) separated and removed; from tissue; host or cells: human red blood cells (expired donated blood); heat-treated, nanofiltered, purified and concentrated HbCO, photoconverted to HbO2
Assay: Screening of suppressing effect of compounds against autoxidation of HbO2
Format: biochemical
Conditions: HbO2 10 g/dL, antioxidant 1 g/dL, 37° C., 24 hours
Description: […], two antioxidants: quercetin and astaxanthin; water-soluble polymers: […] NADH was purchased from Oriental Yeast Co. Ltd., and all the rest were purchased from Sigma-Aldrich (St. Louis, Mo., USA). HbCO solution was transferred to an eggplant flask and irradiated with visible light (halogen lamp; LPL Videeoligtvl-302, LPLCO. Ltd., Tokyo, Japan) under oxygen gas flow to convert to HbO2. […] The conversion ratios to metHb were determined from the visible absorption spectrum. The measurement of spectrum between 300 nm to 500 nm was conducted using a spectrophotometer (V-660, Japan Spectroscopic Company (JASCO)) mounted with a device to control the light scattering to the minimum (an integrating sphere). The atmosphere inside of a Thunberg cuvette was replaced with nitrogen gas and the conversion ratios to metHb were determined from the ratios of absorbance at 405 nm (λmax of metHb) and 430 nm (λmax of deoxyHb).

In the case of “human albumin: “Benesis”, 25% albumin from donated blood for iv injection, 5 g/20 mL, Japanese Blood Products Organization”, the “metHb conversion (%)” value is reported as 32%.
